Experimental data published in US9725465B2, “Biaryl acetamide compounds and methods of use thereof” (Ambit Biosciences Corporation, priority 2013, dated 2017).

Columns and labels:
[1] = system: Ba/F3 cells expressing FLT3-ITD-D835V
[2] = system: Ba/F3 cells expressing FLT3-ITD
FLT3-ITD-F691L = FLT3-ITD-F691L (Homo sapiens (Human), UniProt P36888, F691L/INS600HVDFREYEYD); assay: pFLT3 MSD assay, Ba/F3 FLT3-ITD-F691L; format: cell-based; conditions: Ba/F3 FLT3-ITD-F691L cells, 2 hours, read-out: BaF3-FLT3-ITD-F691L pFlt3 IC50
FLT3-ITD-D835V = FLT3-ITD-D835V (Homo sapiens (Human), UniProt P36888, D835V/INS600HVDFREYEYD); assay: pFLT3 MSD assay, Ba/F3 FLT3-ITD-D835V; format: cell-based; conditions: Ba/F3 FLT3-ITD-D835V cells, 2 hours, read-out: BaF3-FLT3-ITD-D835V pFlt3 IC50

Structure (SMILES)	IC50 [1]	IC50 [2]	IC50 (FLT3-ITD-F691L)	IC50 (FLT3-ITD-D835V)
COc1cc2ncc(-c3cc(F)c(CC(=O)Nc4cc(C5(C(F)(F)F)CC5)on4)cc3F)nc2cc1OC [Example 218, 2-[4-(6,7-dimethoxyquinoxalin-2-yl)-2,5-difluoro-phenyl]-N-[5-[1-(trifluoro-methyl)cyclopropyl]isoxazol-3-yl]acetamide]	< 10 nM	< 10 nM		
COc1cc2ncc(-c3ccc(CC(=O)Nc4cc(C5(C(F)(F)F)CC5)on4)c(F)c3)nc2cc1OCCCNC(C)=O [Example 214, 2-[4-[7-(3-acetamidopropoxy)-6-methoxy-quinoxalin-2-yl]-2-fluoro-phenyl]-N-[5-[1-(trifluoromethyl)cyclo-propyl]isoxazol-3-yl]acetamide]		< 10 nM		
COc1cc2nc(-c3ccc(CC(=O)Nc4cc(C5(C(F)(F)F)CC5)on4)c(F)c3)cnc2cc1OCCN1CCS(=O)(=O)CC1 [Example 216, 2-[4-[6-[2-(1,1-dioxo-1,4-thiazinan-4-yl)ethoxy]-7-methoxy-quinoxalin-2-yl]-2-fluoro-phenyl]-N-[5-[1-(trifluoromethyl)cyclo-propyl]isoxazol-3-yl]acetamide]		< 10 nM		
O=C(Cc1ccc(-c2cnc3[nH]c(C(=O)N4CC(O)C4)cc3c2)cc1F)Nc1cc(C2(C(F)(F)F)CC2)on1 [Example 111, 2-[2-fluoro-4-[2-(3-hydroxyazetidine-1-carbonyl)-1H-pyrrolo[2,3-b]pyridin-5-yl]phenyl]-N-[5-[1-(trifluoro-methyl)cyclopropyl]isoxazol-3-yl]acetamide]		< 10 nM	< 10 nM	< 10 nM
COc1cc2ncc(-c3ccc(CC(=O)Nc4cc(C(C)(C)C(F)(F)F)on4)c(F)c3)cc2cc1OCCN1CC[C@H](O)[C@@H](F)C1 (stereo in doubt) [Example 87, 2-(2-Fluoro-4-{6-[2-(3-fluoro-4-hydroxy-piperidin-1-yl)-ethoxy]-7-methoxy-quinolin-3-yl}-phenyl)-N-[5-(2,2,2-trifluoro-1,1-dimethyl-ethyl)-isoxazol-3-yl]-acetamide]		< 10 nM		
COc1cc2nc(-c3ccc(CC(=O)Nc4cc(C5(C(F)(F)F)CC5)on4)c(F)c3)cnc2cc1OCCN1CC2CCC(C1)O2 [Example 244, 2-[2-fluoro-4-[7-methoxy-6-[2-(8-oxa-3-azabicyclo[3.2.1]octan-3-yl)ethoxy]quinoxalin-2-yl]phenyl]-N-[5-[1-(trifluoromethyl)cyclo-propyl]isoxazol-3-yl]acetamide]		< 10 nM		
COc1cc2ncc(-c3ccc(CC(=O)Nc4cc(C(C)(C)C(F)(F)F)on4)c(F)c3)cc2cc1OCCN1CCC(O)CC1 [Example 206, 2-[2-fluoro-4-[6-[2-(4-hydroxy-1-piperidyl)ethoxy]-7-methoxy-3-quinolyl]phenyl]-N-[5-(2,2,2-trifluoro-1,1-dimethyl-ethyl)isoxazol-3-yl]acetamide]		< 10 nM		
Nc1nc2ccccc2nc1-c1ccc(CC(=O)Nc2cc(C3(C(F)(F)F)CC3)on2)cc1 [Example 7, 2-(4-(3-aminoquinoxalin-2-yl)phenyl)-N-(5-(1-(trifluoromethyl)cyclopropyl)isoxazol-3-yl)acetamide]	> 50 nM			
CN1CC(NC(=O)c2cc3cc(-c4ccc(CC(=O)Nc5cc(C6(C(F)(F)F)CC6)on5)c(F)c4)cnc3[nH]2)C1 [Example 113, 5-[3-fluoro-4-[2-oxo-2-[[5-[1-(trifluoromethyl)cyclo-propyl]isoxazol-3-yl]amino]ethyl]phenyl]-N-(1-methylazetidin-3-yl)-1H-pyrrolo[2,3-b]pyridine-2-carboxamide]		< 10 nM	< 10 nM	< 10 nM
COc1cc2nc(-c3ccc(CC(=O)Nc4cc(C5(C)CC5)no4)c(F)c3)cnc2cc1OCCN1CCOCC1 [Example 95, 2-(2-fluoro-4-(7-methoxy-6-(2-morpholinoethoxy)quinoxalin-2-yl)phenyl)-N-(3-(1-methylcyclopropyl)isoxazol-5-yl)acetamide]		< 10 nM		
COc1cc2nc(-c3ccc(CC(=O)Nc4cc(C(C)(C)C(F)(F)F)on4)c(F)c3)cnc2cc1OCC(C)(C)O [Example 246, 2-[2-fluoro-4-[6-(2-hydroxy-2-methyl-propoxy)-7-methoxy-quinoxalin-2-yl]phenyl]-N-[5-(2,2,2-trifluoro-1,1-dimethyl-ethyl)isoxazol-3-yl]acetamide]		< 10 nM		
Cn1ccc2ncc(-c3ccc(CC(=O)Nc4cc(C5(C(F)(F)F)CC5)on4)cc3)nc21 [Example 9, 2-(4-(5-methyl-5H-pyrrolo[2,3-b]pyrazin-3-yl)phenyl)-N-(5-(1-(trifluoromethyl)cyclopropyl)isoxazol-3-yl)acetamide]	10 to 20 nM			
COc1cc2nc(-c3ccc(CC(=O)Nc4cc(C5(C(F)(F)F)CC5)on4)c(F)c3)cnc2cc1OCCn1cncn1 [Example 185, 2-[2-fluoro-4-[7-methoxy-6-[2-(1,2,4-triazol-1-yl)ethoxy]quinoxalin-2-yl]phenyl]-N-[5-[1-(trifluoro-methyl)cyclopropyl]isoxazol-3-yl]acetamide]		< 10 nM		
O=C(Cc1ccc(-c2cnc3[nH]c(C(=O)NC4CNC4)cc3c2)cc1F)Nc1cc(C2(C(F)(F)F)CC2)on1 [Example 112, N-(azetidin-3-yl)-5-[3-fluoro-4-[2-oxo-2-[[5-[1-(trifluoromethyl)cyclo-propyl]isoxazol-3-yl]amino]ethyl]phenyl]-1H-pyrrolo[2,3-b]pyridine-2-carboxamide]		< 10 nM	20 to 50 nM	20 to 50 nM
O=C(Cc1ccc(-c2cnc3ccsc3c2)cc1)Nc1cc(C2(C(F)(F)F)CC2)on1 [Example 10, 2-(4-(thieno[3,2-b]pyridin-6-yl)phenyl)-N-(5-(1-(trifluoromethyl)cyclopropyl)isoxazol-3-yl)acetamide]			< 10 nM	< 10 nM

Continued, values first:

IC50 [1]	IC50 [2]	IC50 (FLT3-ITD-F691L)	IC50 (FLT3-ITD-D835V)	Structure (SMILES)
< 10 nM	< 10 nM			COc1cc2nc(-c3ccc(CC(=O)Nc4cc(C(C)(C)C(F)(F)F)on4)c(F)c3)cnc2cc1OCCn1cncn1 [Example 210, 2-[2-fluoro-4-[7-methoxy-6-[2-(1,2,4-triazol-1-yl)ethoxy]quinoxalin-2-yl]phenyl]-N-[5-(2,2,2-trifluoro-1,1-dimethyl-ethyl)isoxazol-3-yl]acetamide]
< 10 nM	< 10 nM			COc1cc2ncc(-c3ccc(CC(=O)Nc4cc(C5(C(F)(F)F)CC5)on4)c(F)c3)cc2cc1OCCNC(C)=O [Example 193, 2-[4-[6-(2-acetamidoethoxy)-7-methoxy-3-quinolyl]-2-fluoro-phenyl]-N-[5-[1-(trifluoromethyl)cyclo-propyl]isoxazol-3-yl]acetamide]
< 10 nM	< 10 nM			COc1cc2ncc(-c3ccc(CC(=O)Nc4cc(C(C)(C)C(F)(F)F)nn4C)c(F)c3)nc2cc1OC [Example 181, 2-[4-(6,7-dimethoxyquinoxalin-2-yl)-2-fluoro-phenyl]-N-[2-methyl-5-(2,2,2-trifluoro-1,1-dimethyl-ethyl)pyrazol-3-yl]acetamide]
20 to 50 nM	< 10 nM			COc1cc2ncc(-c3ccc(CC(=O)Nc4cc(C(C)(C)C(F)(F)F)on4)c(F)c3)cc2cc1OCCN1CCC(F)(F)CC1 [Example 207, 2-[4-[6-[2-(4,4-difluoro-1-piperidyl)ethoxy]-7-methoxy-3-quinolyl]-2-fluoro-phenyl]-N-[5-(2,2,2-trifluoro-1,1-dimethyl-ethyl)isoxazol-3-yl]acetamide]
< 10 nM	< 10 nM			COc1cc2nc(-c3ccc(CC(=O)Nc4cc(C5(C(F)(F)F)CC5)on4)c(F)c3)cnc2cc1OCCCS(C)(=O)=O [Example 222, 2-[2-fluoro-4-[7-methoxy-6-(3-methylsulfonyl-propoxy)quinoxalin-2-yl]phenyl]-N-[5-[1-(trifluoromethyl)cyclo-propyl]isoxazol-3-yl]acetamide]
20 to 50 nM	< 10 nM			COc1cc2ncc(-c3cc(F)c(CC(=O)Nc4cc(C5(C(F)(F)F)CC5)on4)c(F)c3)nc2cc1OC [Example 226, 2-[4-(6,7-dimethoxyquinoxalin-2-yl)-2,6-difluoro-phenyl]-N-[5-[1-(trifluoromethyl)cyclo-propyl]isoxazol-3-yl]acetamide]
< 10 nM	< 10 nM			COc1cc2nc(-c3ccc(CC(=O)Nc4cc(C5(C(F)(F)F)CC5)n[nH]4)c(F)c3)cnc2cc1OCCN1CCOCC1 [Example 230, 2-[2-fluoro-4-[7-methoxy-6-(2-morpholino-ethoxy)quinoxalin-2-yl]phenyl]-N-[3-[1-(trifluoro-methyl)cyclopropyl]-1H-pyrazol-5-yl]acetamide]
< 10 nM	< 10 nM			COc1cc2ncc(-c3ccc(CC(=O)Nc4cc(C5(C(F)(F)F)CC5)on4)c(F)c3)nc2cc1OCCCN1CCOCC1 [Example 213, 2-[2-fluoro-4-[6-methoxy-7-(3-morpholino-propoxy)quinoxalin-2-yl]phenyl]-N-[5-[1-(trifluoro-methyl)cyclopropyl]isoxazol-3-yl]acetamide]
< 10 nM	< 10 nM			COc1cc2cc(-c3ccc(CC(=O)Nc4cc(C(C)(C)C(F)(F)F)on4)c(F)c3)cnc2cc1OCCN1CCOCC1 [Example 197, 2-[2-fluoro-4-[6-methoxy-7-(2-morpholinoethoxy)-3-quinolyl]phenyl]-N-[5-(2,2,2-trifluoro-1,1-dimethyl-ethyl)isoxazol-3-yl]acetamide]
10 to 20 nM	< 10 nM			COc1cc2ncc(-c3ccc(CC(=O)Nc4cc(C5(C(F)(F)F)CC5)on4)c(F)c3)nc2cc1OCCCN [Example 227, 2-[4-[7-(3-aminopropoxy)-6-methoxy-quinoxalin-2-yl]-2-fluoro-phenyl]-N-[5-[1-(trifluoromethyl)cyclo-propyl]isoxazol-3-yl]acetamide]
